Tested on: SCLC cell lines
Test: Short-term MTS cytotoxicity assay in a panel of 9 SCLC cell lines
Details: especially at concentrations ≥20 μmol/L

Question: With C[C@]1(c2nc3c(C(N)=O)cccc3[nH]2)CCCN1 [veliparib] as the compound, how does the “single-agent activity in several cell lines (H187, H146, DMS153)” value read?
Answer: modest activity
